pEC50, pIC50: −log10 of the molar value.

Chains of the proteins cited; added tags and fusions are not shown. Residues count along the entry.
UniProt P41595, whole entry: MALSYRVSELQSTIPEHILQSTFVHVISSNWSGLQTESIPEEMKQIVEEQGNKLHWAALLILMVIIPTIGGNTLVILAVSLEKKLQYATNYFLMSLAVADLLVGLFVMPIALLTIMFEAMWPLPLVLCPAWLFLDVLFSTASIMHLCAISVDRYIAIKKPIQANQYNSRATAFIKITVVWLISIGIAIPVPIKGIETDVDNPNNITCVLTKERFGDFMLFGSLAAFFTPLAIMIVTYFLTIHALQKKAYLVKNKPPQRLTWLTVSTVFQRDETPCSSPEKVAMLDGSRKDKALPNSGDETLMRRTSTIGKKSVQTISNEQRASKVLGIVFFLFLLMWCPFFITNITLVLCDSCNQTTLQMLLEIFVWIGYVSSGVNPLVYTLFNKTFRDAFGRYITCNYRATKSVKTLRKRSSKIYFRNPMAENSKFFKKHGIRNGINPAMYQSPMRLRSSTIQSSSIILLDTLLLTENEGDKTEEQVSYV
UniProt P28335, 33-458 V354A: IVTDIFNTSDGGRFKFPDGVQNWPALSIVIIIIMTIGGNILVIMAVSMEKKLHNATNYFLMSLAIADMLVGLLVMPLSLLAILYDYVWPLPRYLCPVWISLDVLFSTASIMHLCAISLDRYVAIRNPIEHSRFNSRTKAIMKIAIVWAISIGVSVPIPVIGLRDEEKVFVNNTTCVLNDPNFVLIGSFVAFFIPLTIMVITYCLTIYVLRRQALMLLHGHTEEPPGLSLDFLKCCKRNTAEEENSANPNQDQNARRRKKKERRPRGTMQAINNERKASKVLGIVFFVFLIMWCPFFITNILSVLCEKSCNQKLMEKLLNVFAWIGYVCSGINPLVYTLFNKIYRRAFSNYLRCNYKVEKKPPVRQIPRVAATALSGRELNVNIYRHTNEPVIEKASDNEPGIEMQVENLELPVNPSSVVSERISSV
UniProt P28335, 33-458 V354F: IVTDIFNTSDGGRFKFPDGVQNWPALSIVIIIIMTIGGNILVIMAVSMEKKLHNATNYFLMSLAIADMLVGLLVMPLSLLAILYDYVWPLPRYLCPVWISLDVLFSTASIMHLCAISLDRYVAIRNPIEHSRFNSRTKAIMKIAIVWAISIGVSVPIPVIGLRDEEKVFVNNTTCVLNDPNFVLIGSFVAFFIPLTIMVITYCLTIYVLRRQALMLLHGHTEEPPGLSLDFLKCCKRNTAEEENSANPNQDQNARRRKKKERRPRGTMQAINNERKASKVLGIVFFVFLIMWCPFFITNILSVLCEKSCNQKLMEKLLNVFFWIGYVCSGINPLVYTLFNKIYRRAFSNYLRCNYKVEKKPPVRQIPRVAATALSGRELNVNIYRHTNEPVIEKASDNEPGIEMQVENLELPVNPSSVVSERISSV

Assay [1] has as its target 5-HT2B (Homo sapiens, UniProt P41595). The conditions noted are these: read-out: IC50, antagonism of 5-HT2B.
In assay [2] the target is human 5-HT2C and its mutants (Homo sapiens, UniProt P28335, V354A). The assay can be described thus: Tango β-arrestin2 recruitment assay, HTLA cells. In kind it is cell-based. Particulars: read-out: β-arrestin recruitment EC50.
The target in assay [3] is wild-type or mutant 5-HT2C (Homo sapiens, UniProt P28335, V354F). In words: Gq calcium flux assay, transfected T-rex 293 cells. In kind it is cell-based. The conditions noted are these: read-out: Gq activity EC50.
Assay [4] deals with wild-type or mutant 5-HT2C (Homo sapiens, UniProt P28335, V354A). The assay can be described thus: Gq calcium flux assay, transfected T-rex 293 cells. In kind it is cell-based. The conditions noted are these: read-out: Gq activity EC50. On the technique in general: A change in cytosolic calcium serves as a functional read-out for many receptors and channels.

In general, pIC50 refers to −log10 of the IC50, conventionally taken in molar units. For orientation: pEC50 means the negative decadic logarithm of the EC50, by convention in mol/L. Take (R)-asimilobine [Compound 1857]: in assay [1], the pIC50 was below 5.00. The pEC50 in assay [2] is 5.64; in assay [3], 7.27; in assay [4], 8.19.
